Results reported in patent US20150087686A1, “CRYSTALLINE FORMS OF SAXAGLIPTIN” (priority 2012, published 2015).

Assay: Chemical stability at 60° C.-37% RH (amidine impurities by HPLC-MS)
Experimental: Crystalline and chemical stability at 60° C.-37% RH: saxagliptin crystalline form I and the known saxagliptin crystalline forms H-1, H2-1 were stored at 60° C. with 37% relative humidity (RH). The samples were analyzed by XRPD and HPLC-MS to check crystalline transformation and chemical degradation.
Crystalline and chemical stability at 60° C.—37% RH: Saxagliptin crystalline forms H-1, H2-1 and A were stored at 60° C. with 37% RH. The samples were analyzed by XRPD and HPLC-MS to check crystalline transformation and chemical degradation.

Question: Which results are given for “salt of saxagliptin with glycolic acid (1:1) hydrate [Form A]”?
Answer: Degradation rate / stability compared with free base H-1 and hydrochloride H2-1: better stability; Δ variation amidine Impurities A and B % (HPLC-MS), impurity (A) (16 h (Table 7)): 0.1% (A); Δ variation amidine Impurities A and B % (HPLC-MS), impurity (A) (168 h (Table 7)): 0.7%; Δ variation amidine Impurities A and B % (HPLC-MS), impurity (B) (168 h (Table 7)): 0.2%
